In patent US20220098265A1 (MEDIMMUNE LIMITED, priority 2012, published 2022):

Experiment: Stability testing of peptides in human plasma
Type: in vitro ADME
Settings: Human Plasma at 24 h, 37° C.; read-out: % stable peptide
Procedure: Stability testing of peptides in plasma. The stability in plasma of the peptides […], […], […] and […] was determined as follows. […] The frozen blank plasma from human, rat and mouse had been thawed and heated to a temperature of 37° C. before addition of the stock solution. The spiked plasma samples were gently mixed and allowed to equilibrate for about 5 minutes before start of experiment. The plasma samples were incubated for 48 hours in a Galaxy® CO2 incubator at 37° C. […] The samples were stored at -70° C. until analysis. Plasma samples were assayed as follows. The 30 μL plasma samples were protein precipitated with […] of cold ethanol in a 96-well low bind plate (Eppendorf Protein LoBind). After mixing and centrifugation 100 μl the supernatant was transferred to a new plate and 1 μl was injected onto an analytical column. The analysis was performed using a μLC-system ([…]) coupled to a medium high resolution mass spectrometer (Perkin Elmer PenTOF) with positive electrospray ionisation. […] Flow: 0.1 ml/min using a slow reversed phase gradient. […] Products with +1 mass may arise from deamidation at amide groups of glutamine or at the C-terminus. Cleavage products arise from the action of the protease DPP IV in plasma. […] Peaks were integrated and % remaining peptide was calculated: […] […]

Which remaining at 24 h does the source give for `CCCCCCCCCCCCCCCC(=O)N[C@@H](CCC(=O)NCCCC[C@H](NC(=O)[C@H](CC(=O)O)NC(=O)[C@H](CO)NC(=O)[C@@H](NC(=O)[C@H](Cc1ccccc1)NC(=O)[C@@H](NC(=O)CNC(=O)[C@H](CCC(N)=O)NC(=O)[C@H](CO)NC(=O)[C@@H](N)Cc1c[nH]cn1)[C@@H](C)O)[C@@H](C)O)C(=O)N[C@@H](CO)C(=O)N[C@@H](CCC(=O)O)C(=O)N[C@@H](Cc1ccc(O)cc1)C(=O)N[C@@H](CC(C)C)C(=O)N[C@@H](CC(=O)O)C(=O)N[C@@H](CO)C(=O)N[C@@H](CCC(=O)O)C(=O)N[C@@H](CCCNC(=N)N)C(=O)N[C@@H](C)C(=O)N[C@@H](CCCNC(=N)N)C(=O)N[C@@H](CC(=O)O)C(=O)N[C@@H](Cc1ccccc1)C(=O)N[C@H](C(=O)N[C@@H](C)C(=O)N[C@@H](Cc1c[nH]c2ccccc12)C(=O)N[C@@H](CC(C)C)C(=O)N[C@@H](CCC(=O)O)C(=O)N[C@@H](C)C(=O)NCC(=O)NCC(=O)O)C(C)C)C(=O)O` [Peptide G933] here?
The remaining at 24 h was 86%.
